Bioassay records as filed in PubChem BioAssay.
B2AR arrestin: beta2AR (human) beta-arrestin recruitment activity. actives 0.02% (n = 330,000). beta-arrestin recruitment to beta2AR, cell-based reporter. P07550. AID 492947. Potency, µM (titrated, usually from 46.1 µM), without a hit: at the highest dose activation, hits mostly activators;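 further: potency means the concentration at half of the fitted maximal effect; 0% = DMSO controls and full agonism = EC100 isoproterenol or metaproterenol; nearly all actives have a fitted effect of over 65% in size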
A549 tox: A549 cytotoxicity, counter-screen for Nrf2 inhibitors; A549 ARE-Fluc cells, CellTiter-Fluor viability, 18-24 h; Potency, µM (series often up to 46 µM), for inactives: top-dose activity change, negative = cytotoxicity, actives largely listed as inhibitors; actives 0.16% (n = 390,000); further: potency means the concentration at half of the fitted maximal effect; on the % scale 0 is the no-effect control and ±100 the full control effect
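Cytotoxicity counterscreen: CellTiter-Fluor fluorescence was measured in A549 ARE_Fluc cells after 18-24 h of compound exposure in a concentration series. The subsequent BugLite luminescent read reports ARE-luciferase activity.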
miR-21 FLuc: miR-21 reporter, rising signal; HeLa miR-21 FLuc reporter, luciferase, 48 h; Potency, µM (highest dose often 38.3 µM), for the others: top-dose reporter change, positive = more light; 340,000 tested, under 10 active; AID 2288; active = well fitted rising curve with a large enough effect; inconclusive = small, poorly fitted or top-dose-only effect; inactive = no such curve, though single readings can be large or run the other way;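 further: % of control where 0% means no effect; miR-21 action dims this reporter so a rising signal means less miR-21 action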
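Compounds were titrated across several concentrations (up to approximately 40 uM) and incubated 48 hours with HeLa miR-21-FLuc reporter cells (miR-21 target sequence downstream of FLuc, endogenous miR-21). Readout was firefly luciferase luminescence after lytic detection reagent.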
Nrf2 inh: inhibitors of Nrf2 signaling | Potency, µM (series often up to 46 µM), for inactives: at the top dose activity change, negative = inhibition, hits mostly inhibitors | actives 2.1% (n = 360,000) | A549 ARE-Fluc reporter, luciferase luminescence, 18-24 h; further: potency means the concentration at half of the fitted maximal effect; on the % scale 0 is the no-effect control and ±100 the full control effect; nearly all actives have a fitted effect of over 60% in size
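Nrf2 function is reported as luminescence of an ARE-controlled luciferase in A549 cells. Compounds were tested at several concentrations, and a CellTiter-Fluor read on the same wells flagged cytotoxicity.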
Nrf2 activator: Nrf2 pathway activation. actives 0.31% (n = 410,000). AREc32 ARE-luciferase reporter (MCF7-derived line), luminescence, 24 h. Potency, µM (series often up to 46.1 µM), for inactives: top-dose activation, hits mostly activators; further: potency means the concentration at half of the fitted maximal effect; % of control where 0% means no effect; nearly all actives have a fitted effect of over 65% in size
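Reporter line AREc32 (ARE-Fluc), seeded overnight in OPTI-MEM with 5% FBS; compound pin-transferred, 24 hr at 37 deg C, 5% CO2; luminescent read-out.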
* hit, by the source's call; [ ] = dose if it differs, or a comment. An excerpt weighted towards active compounds, which were near 2.2% of everything screened. Unless noted, the call rests on the fitted dose curve; in most records, active means well fitted curve in the direction sought with a large enough effect; inconclusive means small, poorly fitted or top-dose-only effect, or another doubt; inactive means no such curve, though single readings can be large; an effect the other way counts as inactive or inconclusive.

Screening CCOC(=O)C1CCCN(C(=O)c2ccc3c(c2)N(Cc2ccc(Cl)cc2)C(=O)c2ccccc2S3=O)C1 (stereo unspecified) returned A549 tox -10%, miR-21 FLuc 3%, Nrf2 inh -9% and Nrf2 activator 4%.
`Cc1c(C(=O)N2CCCCCC2)c(S(=O)(=O)N(Cc2ccccc2)C(C)(C)C)c(C)n1C` gave A549 tox -18%, miR-21 FLuc 13%, Nrf2 inh 16% and Nrf2 activator 0%.
For Cc1ccc(Cl)cc1NC(=O)Cn1nnc2sc3c(c2c1=O)CCC(C(C)(C)C)C3 (stereo unspecified) the results were A549 tox -8%, miR-21 FLuc 1%, Nrf2 inh -10% and Nrf2 activator 0%.
`O=C(NNC(=S)NC1CCCCC1)c1sc2ccccc2c1Cl` gave B2AR arrestin 0%, A549 tox 0%, miR-21 FLuc -11%, Nrf2 inh inconclusive and Nrf2 activator 0%[9.22 µM].
For CC(C)(C)C(=O)NC(=S)NNC(=O)c1sc2ccccc2c1Cl the results were B2AR arrestin 0%, A549 tox inconclusive, miR-21 FLuc -14%, Nrf2 inh 5.8µM* and Nrf2 activator -1%.
Screening CC(=O)Oc1c(I)cc(I)cc1C(=O)Nc1ccc(Cl)cc1 returned B2AR arrestin -1%, A549 tox inconclusive, miR-21 FLuc inconclusive, Nrf2 inh 23µM* and Nrf2 activator 0%.
`CN1c2ccsc2/C(=N/Nc2ccc(F)cc2)CS1(=O)=O` gave B2AR arrestin 0%, A549 tox -18%, miR-21 FLuc -47%, Nrf2 inh inconclusive and Nrf2 activator 13µM*.
`C/C(=N\Nc1cc(C(F)(F)F)ccc1Cl)c1ccccc1O` gave B2AR arrestin -2%, A549 tox 14%, miR-21 FLuc 0%, Nrf2 inh 3% and Nrf2 activator 11µM*.
`CS(=O)(=O)N1CCC(Oc2cccc(C(=O)NCCCC3CCCC3)c2)CC1` gave A549 tox -12%, Nrf2 inh 26µM* and Nrf2 activator 0%.
COc1ccc(-c2[nH]c(-c3ccc4c(c3)OCO4)nc2-c2ccccc2)cc1 was read as B2AR arrestin 0%, A549 tox inconclusive, miR-21 FLuc 26%, Nrf2 inh 21µM* and Nrf2 activator -1%.
`CC(=O)Nc1ccc(S(=O)(=O)Oc2ccc(C(=S)N3CCC(O)CC3)cc2)cc1` gave B2AR arrestin -5%, A549 tox 0%, miR-21 FLuc 16%, Nrf2 inh inconclusive and Nrf2 activator 3%.
`CCOc1cc(C(=S)N2CCOCC2)ccc1OS(=O)(=O)c1ccc(NC(C)=O)cc1` gave B2AR arrestin 0%, A549 tox -15%, miR-21 FLuc 24%, Nrf2 inh 9.2µM* and Nrf2 activator 1%.
CC(=O)Nc1ccc(S(=O)(=O)Oc2ccc(C(=S)N3CCCCC3)cc2)cc1 was read as B2AR arrestin -1%, A549 tox -17%, miR-21 FLuc 7%, Nrf2 inh 21µM* and Nrf2 activator 1%.
COc1ccc(CNc2ncnc3nc[nH]c23)cc1OC was read as A549 tox inconclusive and Nrf2 inh 0%.
O=C(c1ccc2c(c1)OCCO2)N1CCN(c2nc(-c3cccs3)nc3ccccc23)CC1 was read as A549 tox -17% and Nrf2 inh inconclusive.

The last 4 compounds of the part above lead into the next:
`CCOc1cc(C(=S)N2CCOCC2)ccc1OS(=O)(=O)c1ccc(NC(C)=O)cc1` gave B2AR arrestin 0%, A549 tox -15%, miR-21 FLuc 24%, Nrf2 inh 9.2µM* and Nrf2 activator 1%.
CC(=O)Nc1ccc(S(=O)(=O)Oc2ccc(C(=S)N3CCCCC3)cc2)cc1 was read as B2AR arrestin -1%, A549 tox -17%, miR-21 FLuc 7%, Nrf2 inh 21µM* and Nrf2 activator 1%.
COc1ccc(CNc2ncnc3nc[nH]c23)cc1OC was read as A549 tox inconclusive and Nrf2 inh 0%.
O=C(c1ccc2c(c1)OCCO2)N1CCN(c2nc(-c3cccs3)nc3ccccc23)CC1 was read as A549 tox -17% and Nrf2 inh inconclusive.
For Cc1ccc(OCc2cc(C(=O)NC3CCc4ccccc43)no2)cn1 (stereo unspecified) the results were B2AR arrestin 0%, A549 tox 1%, miR-21 FLuc 14%, Nrf2 inh 13µM* and Nrf2 activator -1%.
CSc1ccccc1OCc1cc(C(=O)NC2CCc3ccccc32)no1 (stereo unspecified) was read as B2AR arrestin 0%, A549 tox 3%, miR-21 FLuc -7%, Nrf2 inh 14% and Nrf2 activator 0%.
`CCn1ccc2c(OCC(=O)Nc3ccc(C)c(Cl)c3)cccc2c1=O` gave A549 tox -19%, miR-21 FLuc 10% and Nrf2 activator -1%.
Cc1cccc(CNC(=O)c2ccc(-c3nc(CS(=O)(=O)c4ccccc4)c(C)o3)cc2)c1 was read as A549 tox 6%, miR-21 FLuc -8%, Nrf2 inh inconclusive and Nrf2 activator 1%.
`COc1cccc(CNC(=O)c2ccc(-c3nc(CS(=O)(=O)c4ccccc4)c(C)o3)cc2)c1` gave A549 tox 7%, miR-21 FLuc 7%, Nrf2 inh 23µM* and Nrf2 activator 0%.
For COc1ccc(NC(=O)CS(=O)(=O)Cc2nc(-c3ccc(C)cc3)oc2C)cc1 the results were B2AR arrestin 0%, A549 tox -1%, miR-21 FLuc -1%, Nrf2 inh 0% and Nrf2 activator 0%.
For COc1cccc(NC(=O)CS(=O)(=O)Cc2nc(-c3ccc(C)cc3)oc2C)c1 the results were B2AR arrestin 0%, A549 tox -15%, miR-21 FLuc 3%, Nrf2 inh 26µM* and Nrf2 activator 1%.
For Cc1ccsc1CCN1C(=O)N(c2ccc(F)cc2)C(=O)C1CC(=O)Nc1ccccc1 (stereo unspecified) the results were A549 tox -17%, miR-21 FLuc 10%, Nrf2 inh -19% and Nrf2 activator 10%.
NCCC(=O)Nc1cccc(-c2nn3c(=O)cc(N4CCNCC4)nc3s2)c1 was read as A549 tox 3% and Nrf2 inh -6%.
For O=c1cc(N2CCCCC2)c(-c2ccccc2)nn1Cc1c(Cl)cccc1Cl the results were B2AR arrestin 0%, A549 tox inconclusive, miR-21 FLuc 2%, Nrf2 inh 18µM* and Nrf2 activator 0%.
`Cc1ccc(C)c(NS(=O)(=O)c2cc(C(=O)NCCC3=CCCCC3)ccc2C)c1` gave B2AR arrestin 0%, A549 tox inconclusive, miR-21 FLuc 10%, Nrf2 inh 21µM* and Nrf2 activator 0%.
Screening Cc1ccc(C)c(NS(=O)(=O)c2cc(C(=O)N3CCc4ccccc4C3)ccc2Cl)c1 returned B2AR arrestin 0%, A549 tox -18%[1.84 µM], miR-21 FLuc 12%, Nrf2 inh 18µM* and Nrf2 activator -1%.
Screening O=C(NCCC1=CCCCC1)c1ccc(=O)oc1 returned B2AR arrestin 0%, A549 tox -19%, miR-21 FLuc -10%, Nrf2 inh inconclusive and Nrf2 activator 13%.
Screening Cc1ccccc1CCNC(=O)c1ccc(Cl)c(S(=O)(=O)N2CC(C)OC(C)C2)c1 (stereo unspecified) returned B2AR arrestin 0%, A549 tox -5%, Nrf2 inh 5.2µM* and Nrf2 activator 2%.
